The values that follow are results of earlier work, collected in patent US20120010161A1, “NOVEL AZAPEPTIDE OR AZAPEPTIDOMIMETIC COMPOUNDS INHIBITING BCRP AND/OR P-GP” (CENTRE NATIONAL DE LA RECHERCHE SCIENTIFIQUE, priority 2009, published 2012).

Chains of the proteins cited; added tags and fusions are not shown.
UniProt P08183, whole entry: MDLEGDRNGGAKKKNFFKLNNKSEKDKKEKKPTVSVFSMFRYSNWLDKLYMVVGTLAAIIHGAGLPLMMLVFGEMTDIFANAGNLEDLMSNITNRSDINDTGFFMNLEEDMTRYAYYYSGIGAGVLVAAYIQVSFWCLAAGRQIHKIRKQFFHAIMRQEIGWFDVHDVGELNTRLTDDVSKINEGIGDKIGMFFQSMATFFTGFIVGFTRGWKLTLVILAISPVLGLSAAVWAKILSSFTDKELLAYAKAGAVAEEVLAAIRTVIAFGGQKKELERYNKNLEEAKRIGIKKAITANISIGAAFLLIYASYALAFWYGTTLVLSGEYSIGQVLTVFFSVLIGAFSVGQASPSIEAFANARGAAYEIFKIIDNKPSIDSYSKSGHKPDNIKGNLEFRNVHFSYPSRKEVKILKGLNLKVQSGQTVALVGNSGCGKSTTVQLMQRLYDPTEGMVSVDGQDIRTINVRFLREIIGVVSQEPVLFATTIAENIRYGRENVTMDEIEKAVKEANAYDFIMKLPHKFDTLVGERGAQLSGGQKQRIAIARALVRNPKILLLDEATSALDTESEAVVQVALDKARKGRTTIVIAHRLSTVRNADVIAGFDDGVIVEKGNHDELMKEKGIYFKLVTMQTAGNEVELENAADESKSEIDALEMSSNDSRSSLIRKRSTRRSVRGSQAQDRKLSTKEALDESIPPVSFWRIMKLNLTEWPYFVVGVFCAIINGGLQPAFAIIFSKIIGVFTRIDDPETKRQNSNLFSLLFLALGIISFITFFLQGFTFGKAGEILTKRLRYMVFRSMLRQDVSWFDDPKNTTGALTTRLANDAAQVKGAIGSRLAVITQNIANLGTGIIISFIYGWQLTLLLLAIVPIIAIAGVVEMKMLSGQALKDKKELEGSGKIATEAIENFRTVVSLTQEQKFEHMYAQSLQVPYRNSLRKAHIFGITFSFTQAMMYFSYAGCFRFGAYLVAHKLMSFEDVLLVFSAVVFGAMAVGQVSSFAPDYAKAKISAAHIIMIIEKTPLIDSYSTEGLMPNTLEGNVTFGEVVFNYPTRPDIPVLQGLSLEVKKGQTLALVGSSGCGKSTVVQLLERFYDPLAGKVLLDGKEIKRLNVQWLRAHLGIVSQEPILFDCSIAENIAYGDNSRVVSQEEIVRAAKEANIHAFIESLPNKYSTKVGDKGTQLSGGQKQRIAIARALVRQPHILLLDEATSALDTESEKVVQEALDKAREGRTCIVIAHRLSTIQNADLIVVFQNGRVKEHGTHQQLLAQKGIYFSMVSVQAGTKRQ

For the data set, the target named is ABCB1 (Homo sapiens, UniProt P08183). To be noted: cited from earlier work.
Also: key: the inhibitor is active (+); it is inactive (−); the effect is unknown (?).

Consider `O[C@@H](COc1cccc2ncccc12)CN1CCN([C@@H]2c3ccccc3[C@@H]3[C@H](c4ccccc42)C3(F)F)CC1` [Ly335979, zosuquidar], for which the “active or inactive on ABCB1” value is “+”.
